Data from patent US8217001B2, “Modification of feeding behavior” (Imperial Innovations Limited, priority 2001, dated 2012).

Legend:
Assay type in all cases: in vivo
[1] = Human infusion study: PYY3-36 plasma concentrations
[2] = Human infusion study: gastric emptying (paracetamol absorption) and plasma glucose and hormones; conditions: 90 minute infusion
[3] = Human infusion study: appetite scores, buffet meal calorie intake, food diaries

time for concentrations to return to basal post-infusion [1]: ≤ 30 min
plasma glucose, plasma leptin, GLP-1, or insulin [2]: no effect
fluid intake ([3]; buffet meal): no effect upon fluid intake
SMILES: CC[C@H](C)[C@H](N)C(=O)N[C@@H](CCCCN)C(=O)N1CCC[C@H]1C(=O)N[C@@H](CCC(=O)O)C(=O)N[C@@H](C)C(=O)N1CCC[C@H]1C(=O)NCC(=O)N[C@@H](CCC(=O)O)C(=O)N[C@@H](CC(=O)O)C(=O)N[C@@H](C)C(=O)N[C@@H](CO)C(=O)N1CCC[C@H]1C(=O)N[C@@H](CCC(=O)O)C(=O)N[C@@H](CCC(=O)O)C(=O)N[C@@H](CC(C)C)C(=O)N[C@@H](CC(N)=O)C(=O)N[C@@H](CCCN=C(N)N)C(=O)N[C@@H](Cc1ccc(O)cc1)C(=O)N[C@@H](Cc1ccc(O)cc1)C(=O)N[C@@H](C)C(=O)N[C@@H](CO)C(=O)N[C@@H](CC(C)C)C(=O)N[C@@H](CCCN=C(N)N)C(=O)N[C@@H](Cc1cnc[nH]1)C(=O)N[C@@H](Cc1ccc(O)cc1)C(=O)N[C@@H](CC(C)C)C(=O)N[C@@H](CC(N)=O)C(=O)N[C@@H](CC(C)C)C(=O)N[C@H](C(=O)N[C@H](C(=O)N[C@@H](CCCN=C(N)N)C(=O)N[C@@H](CCC(N)=O)C(=O)N[C@@H](CCCN=C(N)N)C(=O)N[C@@H](Cc1ccc(O)cc1)C(N)=O)[C@@H](C)O)C(C)C [PYY3-36]
scores for sleepiness or sickness ([3]; 90 minute infusion): not in the scores for sleepiness or sickness
sensations of fullness or nausea ([3]; reported by volunteers): no difference in sensations of fullness or nausea
